pKd: −log10 of the molar value.
Biological target: T1, recombinant human CB2 (Homo sapiens, UniProt P34972)
T1 construct: expressed in transfected cells; host or cells: Sf9 cells
Experiment: Competitive receptor binding against tritium labelled CP55,940, CB2
Settings: purified components; Sf9 cells

Sequences of proteins named here, by UniProt entry; tags and fusion partners are left off.
UniProt P34972, whole entry: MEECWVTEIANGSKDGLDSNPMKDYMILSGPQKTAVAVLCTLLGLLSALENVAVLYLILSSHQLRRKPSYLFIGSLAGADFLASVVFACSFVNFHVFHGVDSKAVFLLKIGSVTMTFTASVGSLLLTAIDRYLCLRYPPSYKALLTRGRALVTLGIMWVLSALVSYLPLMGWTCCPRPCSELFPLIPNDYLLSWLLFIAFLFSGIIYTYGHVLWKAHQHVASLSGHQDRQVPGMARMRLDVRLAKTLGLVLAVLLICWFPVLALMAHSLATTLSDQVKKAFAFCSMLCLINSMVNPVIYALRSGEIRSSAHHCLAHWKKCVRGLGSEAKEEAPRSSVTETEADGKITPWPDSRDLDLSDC

C=C(C)[C@@H]1CCC(C)=C[C@H]1c1c(O)cc(CCCCC)cc1O [CBD, cannabidiol]
pKd: 6.55
